Test results: patent US5021413A (priority 1988, dated 1991)

By UniProt entry, the sequences of proteins in these tests, tags left out. Where a name states a change or a piece, a line headed by the entry shows the natural chain unless it says otherwise. Residues count along the entry.
UniProt P41144: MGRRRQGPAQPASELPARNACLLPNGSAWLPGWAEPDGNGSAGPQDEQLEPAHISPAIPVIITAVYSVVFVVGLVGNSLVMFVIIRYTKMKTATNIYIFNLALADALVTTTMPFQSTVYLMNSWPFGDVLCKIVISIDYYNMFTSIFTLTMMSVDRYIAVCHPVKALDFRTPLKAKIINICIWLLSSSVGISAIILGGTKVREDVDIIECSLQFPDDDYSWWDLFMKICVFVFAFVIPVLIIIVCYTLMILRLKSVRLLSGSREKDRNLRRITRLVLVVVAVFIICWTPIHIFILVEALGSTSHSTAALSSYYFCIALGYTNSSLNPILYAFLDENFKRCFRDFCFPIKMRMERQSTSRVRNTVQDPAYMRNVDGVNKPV
UniProt A0ACM8Q262, 1-400: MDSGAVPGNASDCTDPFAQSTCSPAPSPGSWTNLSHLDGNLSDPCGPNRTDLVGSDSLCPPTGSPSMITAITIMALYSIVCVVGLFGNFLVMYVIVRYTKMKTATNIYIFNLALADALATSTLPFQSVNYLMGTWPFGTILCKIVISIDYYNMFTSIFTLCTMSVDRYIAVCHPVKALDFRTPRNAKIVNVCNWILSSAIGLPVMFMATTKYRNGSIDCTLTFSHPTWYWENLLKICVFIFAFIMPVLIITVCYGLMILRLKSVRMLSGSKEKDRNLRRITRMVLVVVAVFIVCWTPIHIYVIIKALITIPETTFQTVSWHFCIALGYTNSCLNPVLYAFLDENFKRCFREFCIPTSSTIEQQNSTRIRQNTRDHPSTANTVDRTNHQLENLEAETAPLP

Columns and labels:
κ-receptors = κ-receptors (Cavia porcellus, UniProt P41144); settings: read-out: Binding to opioid receptors, k (IC50); 0.6 nM tritium-labelled ethylketocyclazocine, 100 nM DAGO and 10 nM DADLE, 25° C., 45 minutes, guinea pig brain membrane
μ-receptors = μ-receptors (Cavia porcellus, UniProt A0ACM8Q262); settings: read-out: Binding to opioid receptors, μ (IC50); 1 nM tritium-labelled DAGO, guinea pig brain membrane
[1] = tested on: p-phenylquinone-induced writhing in mice; assay: p-Phenylquinone-induced writhing in mice (analgesic effect); format: in vivo, mouse (male ddY mice); settings: s.c.

With `CN(C(=O)Cc1ccc(Cl)c(Cl)c1)[C@@H]1CCCC[C@H]1N1CCCC1` (relative stereo) the IC50 (κ-receptors) was 9.92 nM, the IC50 (μ-receptors) was 636 nM and the “Analgesic effect, phenylquinone-induced writhing, ED50” value ([1]; 15 min before p-phenylquinone i.p., probit method) was 0.49 mg/kg. For the same molecule, the “Analgesic effect, phenylquinone-induced writhing at 320 μg/kg (analgesic-effective animals/all animals)” value ([1]; dose of 320 μg/kg) was 2/5.
